Earlier results on two compounds are cited in paper PMC6804162, “Inhibitory Effects of Novel 7-Substituted 6-iodo-3-O-Flavonol Glycosides against Cholinesterases and β-secretase Activities, and Evaluation for Potential Antioxidant Properties” (Molecules, 2019).

Sequences of proteins named here, by UniProt entry; tags and fusion partners are left off. Residues count along the entry.
UniProt P22303, 32-614 limits assumed: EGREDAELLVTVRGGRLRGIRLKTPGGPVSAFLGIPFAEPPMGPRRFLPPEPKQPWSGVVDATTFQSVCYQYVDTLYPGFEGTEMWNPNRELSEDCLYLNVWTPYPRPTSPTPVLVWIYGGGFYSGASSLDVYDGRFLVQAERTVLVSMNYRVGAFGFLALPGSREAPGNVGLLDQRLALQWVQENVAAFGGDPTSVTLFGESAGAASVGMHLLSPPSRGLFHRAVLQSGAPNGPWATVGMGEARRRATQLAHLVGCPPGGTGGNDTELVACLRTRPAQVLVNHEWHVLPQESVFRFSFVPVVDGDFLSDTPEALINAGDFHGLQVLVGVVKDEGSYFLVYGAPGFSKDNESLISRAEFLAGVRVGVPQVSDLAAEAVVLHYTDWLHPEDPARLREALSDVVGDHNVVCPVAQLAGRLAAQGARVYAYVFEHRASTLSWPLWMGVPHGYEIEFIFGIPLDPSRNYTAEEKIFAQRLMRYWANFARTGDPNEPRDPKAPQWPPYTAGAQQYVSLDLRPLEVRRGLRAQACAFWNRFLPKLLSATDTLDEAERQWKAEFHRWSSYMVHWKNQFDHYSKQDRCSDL

This data set concerns the target acetylcholinesterase (AChE) (Homo sapiens, UniProt P22303). The settings on record: cited from earlier work.

On to `O=c1c(O)c(-c2ccc(Cl)cc2)oc2cc(F)c(I)cc12`, for which the IC50 (as a rule, the concentration that inhibits the measured activity by half) is 3.35 µM.

Turning to `O=c1c(O)c(-c2ccc(Cl)cc2)oc2cc(Br)c(I)cc12`, the IC50 is 29.4 µM.
